These results are taken from US20210122824A1.

The target in this test is human CTLA4 expressed on HEK293F cells (human) (UniProt P16410). Put plainly: flow cytometry, HEK293F cells transiently expressing the target, 100 nM antibody, PE anti-human Fc; Mean (PE-A against FITC-A, GFP surrogate). Background: Flow cytometry measures light scatter and fluorescence of single cells or particles in a stream.

Substance “reference antibody YW243.55.S70 (from U.S. Pat. No. 8,217,149 B2)” had a Mean of 7310.
